Here are results for 1 protein from patent US20190055563.

This data set deals with T1, recombinant human GST-RAD51, Q06609.
T1 chain: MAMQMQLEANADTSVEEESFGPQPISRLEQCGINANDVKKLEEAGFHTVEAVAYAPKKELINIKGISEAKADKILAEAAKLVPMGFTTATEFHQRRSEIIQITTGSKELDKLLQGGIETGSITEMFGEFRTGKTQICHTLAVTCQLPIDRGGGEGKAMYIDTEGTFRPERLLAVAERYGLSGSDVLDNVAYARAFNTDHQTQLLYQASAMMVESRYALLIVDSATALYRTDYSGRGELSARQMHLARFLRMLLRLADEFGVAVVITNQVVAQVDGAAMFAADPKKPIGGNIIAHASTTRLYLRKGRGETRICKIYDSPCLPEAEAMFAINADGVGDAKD

B1: ΔPol2 ΔRAD51 (protein)
chain: MNLLRRSGKRRRSESGSDSFSGSGGDSSASPQFLSGSVLSPPPGLGRCLKAAAAGECKPTVPDYERDKLLLANWGLPKAVLEKYHSFGVKKMFEWQAECLLLGQVLEGKNLVYSAPTSAGKTLVAELLILKRVLEMRKKALFILPFVSVAKEKKYYLQSLFQEVGIKVDGYMGSTSPSRHFSSLDIAVCTIERANGLINRLIEENKMDLLGMVVVDELHMLGDSHRGYLLELLLTKICYITRKSASCQADLASSLSNAVQIVGMSATLPNLELVASWLNAELYHTDFRPVPLLESVKVGNSIYDSSMKLVREFEPMLQVKGDEDHVVSLCYETICDNHSVLLFCPSKKWCEKLADIIAREFYNLHHQAEGLVKPSECPPVILEQKELLEVMDQLRRLPSGLDSVLQKTVPWGVAFHHAGLTFEERDIIEGAFRQGLIRVLAATSTLSSGVNLPARRVIIRTPIFGGRPLDILTYKQMVGRAGRKGVDTVGESILICKNSEKSKGIALLQGSLKPVRSCLQRREGEEVTGSMIRAILEIIVGGVASTSQDMHTYAACTFLAASMKEGKQGIQRNQESVQLGAIEACVMWLLENEFIQSTEASDGTEGKVYHPTHLGSATLSSSLSPADTLDIFADLQRAMKGFVLENDLHILYLVTPMFEDWTTIDWYRFFCLWEKLPTSMKRVAELVGVEEGFLARCVKGKVVARTERQHRQMAIHKRFFTSLVLLDLISEVPLREINQKYGCNRGQIQSLQQSAAVYAGMITVFSNRLGWHNMELLLSQFQKRLTFGIQRELCDLVRVSLLNAQRARVLYASGFHTVADLARANIVEVEVILKNAVPFKSARKAVGVQWNPCALLHSSTCSLTHSESEVKEHTFISQTKSSYKKLTSKNKSNTIFSDSYIKHSPNIVQDLNKSREHTSSFNCNFQNGNQEHQTCSIFRARKRASLDINKEK
On to B1, for which the RAD51-ssDNA nucleofilament assembly entry was “RAD51-ssDNA assembly was reduced by wild-type ΔPol2 but not by A-dead or ΔRAD51”.
